{"sequences": {"note": "Sequences of proteins named here, by UniProt entry; tags and fusion partners are left off. A change or cut given only in a name is not applied to a line headed by its entry.", "UniProt Q9NSD7": "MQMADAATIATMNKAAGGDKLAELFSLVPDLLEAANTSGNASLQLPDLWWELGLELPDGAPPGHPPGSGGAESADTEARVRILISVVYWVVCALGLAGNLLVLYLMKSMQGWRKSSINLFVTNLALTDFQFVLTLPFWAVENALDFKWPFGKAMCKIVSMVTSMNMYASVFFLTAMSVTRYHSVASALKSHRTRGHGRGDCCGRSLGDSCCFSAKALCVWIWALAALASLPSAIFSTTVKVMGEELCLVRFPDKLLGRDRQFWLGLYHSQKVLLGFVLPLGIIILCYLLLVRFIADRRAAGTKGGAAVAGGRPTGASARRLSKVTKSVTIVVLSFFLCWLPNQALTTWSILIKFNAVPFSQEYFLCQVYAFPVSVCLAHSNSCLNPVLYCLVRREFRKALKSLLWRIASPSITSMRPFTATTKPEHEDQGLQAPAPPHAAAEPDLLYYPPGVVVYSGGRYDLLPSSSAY"}, "source": "patent US7638490B2", "about": "“Methods of affecting feeding and weight in mammals by administration of relaxin-3” (priority 2004, dated 2009)", "key": {"SALPR": {"target": "SALPR (Homo sapiens, UniProt Q9NSD7)", "test": "Screening for relaxin-3 antagonistic substance using SALPR-SE302 cells (CRE-PLAP reporter)", "format": "cell-based", "conditions": "20 μg/ml test compound, 3 μmol/L forskolin, 3 nmol/L relaxin-3"}, "[1]": {"system": "SE302 cells without SALPR expression", "test": "Specificity control: transcription activity in SE302 cells without SALPR expression", "conditions": "20 μg/ml test compound, 3 μmol/L forskolin, 3 nmol/L relaxin-3"}}}
{"smiles": "C1=Cc2nonc2C=Cc2nonc2C=Cc2nonc2C=Cc2nonc21", "values": [{"measurement": "antagonism of suppression of transcription activity by relaxin-3", "setting": "SALPR", "result": "antagonized suppression of transcription activity by relaxin-3"}, {"measurement": "transcription activity in SE302 cells without SALPR expression", "setting": "[1]", "result": "did not increase the transcription activity"}]}
